Results on ten molecules are retold here after patent publication US6306876A, “4-[aryl(8-azabicyclo[3.2.1]octan-3-yl)]aminobenzoic acid derivatives” (dated 2001).

The structures appear in SMILES notation.

For this assay, the target named is delta-opioid receptor (Rattus norvegicus, UniProt P33533). The assay can be described thus: Rat Brain Delta-Opioid Receptor Binding Assay. The following applies: read-out: Delta K; rat forebrain homogenate, [3H]DPDPE, 25° C., pH 7.4.
As to `C=CCN1C2CCC1CC(N(c1cccc(OC)c1)c1cccc(C(=O)N(C)c3cccc(F)c3)c1)C2` (stereo not shown), the Ki was 42.6 nM.

On to `CCN(CC)C(=O)c1cccc(N(c2ccccc2)C2CC3CCC(C2)N3C)c1` (stereo not shown), for which the Ki amounted to 6720 nM.

Consider `COc1cccc(N(c2cccc(C(=O)N(C)c3cccc(F)c3)c2)C2CC3CCC(C2)N3)c1` (stereo not shown), for which the Ki was found to be 24.3 nM.

With `CC(C)(C)OC(=O)c1ccc(N(c2ccccc2)C2CC3CCC(C2)N3CCc2ccccc2)cc1` (stereo not shown), the Ki came to 10000 nM.

In the case of `CCN(CC)C(=O)c1ccc(N(Cc2ccccc2)[C@H]2C[C@H]3CC[C@@H](C2)N3C)cc1`, the Ki turned out to be 33.6 nM.

`CCN(CC)C(=O)c1ccc(N(c2ccccc2)[C@H]2C[C@H]3CC[C@@H](C2)N3C2CCCCC2)cc1`: the Ki is 2 nM.

Regarding `CCN(CC)C(=O)c1ccc(N(c2ccccc2)[C@@H]2C[C@H]3CC[C@@H](C2)N3Cc2ccc3c(c2)OCO3)cc1`, the Ki was 4 nM.

Regarding `CCCCN(C)C(=O)c1ccc(N(c2ccccc2)C2CC3CCC(C2)N3CCc2ccccc2)cc1` (stereo not shown), the Ki is 4 nM.

Turning to `C=CCN1C2CCC1CC(N(c1cccc(O)c1)c1cccc(C(=O)N(C)c3cccc(F)c3)c1)C2` (stereo not shown), the Ki came out at 1 nM.

`CCN(CC)C(=O)c1ccc(N(c2ccccc2)[C@H]2C[C@H]3CC[C@@H](C2)N3Cc2ccc3c(c2)OCO3)cc1`: the Ki was 0.2 nM.
